These results are taken from patent publication US7732133B2, “Screening methods for biologically active ligands” (Chugai Seiyaku Kabushiki Kaisha, priority 2000, dated 2010).

What all share (format): cell-based
Assay [1] has as its target T1, chimeric IGF-I receptor (human IGF-I receptor extracellular domain / mouse G-CSF receptor) in Ba/F3 cell line IGG (Homo sapiens, UniProt P08069).
T1 construct: from the 1st to the 931st amino acid residues; expressed in transfected cells; host or cells: mouse Ba/F3 cells, clone IGG#06 = IGG
Nature of the assay: Growth response of chimeric IGF-I receptor-expressing Ba/F3 cell line IGG (WST-8). As to conditions: 72 hours culture in insulin-free Media B, WST-8 absorbance. From the text: A chimeric receptor cDNA was constructed by linking cDNA fragments encoding the extracellular domain (from the 1st to the 931st amino acid residues; Ullrich, A. et al. (1986) EMBO J., 5, 2503-2512) of human IGF-I receptor, and the transmembrane and intracellular domains (from the 602nd to the 813th amino acid residues; Fukunaga, R. et al. (1990) Cell 61, 341-350) of mouse G-CSF receptor. This construct was inserted downstream of the HEF1α promoter of the mammalian expression vector pCV to construct chimeric receptor-expression vector pCV-cIGF1R. pCV-cIGF1R was linearized with Pvu I (Takara Shuzo), extracted with phenol and chloroform, and purified by ethanol precipitation.
The linearized expression vector was introduced into mouse Ba/F3 cells using an electroporation apparatus (Gene Pulser: Bio Rad). The Ba/F3 cells were washed twice with Dulbecco's PBS (hereinafter referred to as PBS), and then were suspended in PBS to give a cell density of about 1×10^7 cells/mL. 20 μg linearized expression vector DNA was added to 0.8 mL of this suspension, transferred into a cuvette (Bio Rad) for electroporation, and pulsed with a capacitance of 960 μF at 0.33 kV.
After leaving standing for about 10 min at room temperature, the cells treated by electroporation were suspended in 40 mL Media A, and were seeded on four 96-well microtiter plates (flat bottom, Falcon) at 100 μL/well. […]

Assay [2] has as its target T2, chimeric PDGF receptor (human PDGF receptor β chain / mouse G-CSF receptor) in Ba/F3 cell line PDG#35 (Homo sapiens, UniProt P09619).
T2 construct: from the 1st to the 531st amino acid residues; expressed in transfected cells; host or cells: mouse Ba/F3 cells, clones PDG#35 (section 1-7) and PDG#10 (section 1-15)
In words: Growth response of chimeric PDGF receptor-expressing Ba/F3 cell line PDG (PDG#35) (WST-8). Conditions: Ba/F3 cell line PDG (PDG#35, FIG. 8), 70 hours culture, WST-8 absorbance. An excerpt: (§1) A chimeric receptor cDNA was constructed by linking cDNA fragments encoding the β chain (from the 1st to the 531st amino acid residues; Gronwald, RGK. et al. (1988) Proc. Natl. Acad. Sci. USA. 85, 3435-3439) of human PDGF receptor, and the transmembrane and intracellular domains (from the 602nd to the 813th amino acid residues; Fukunaga, R. et al. (1990) Cell 61, 341-350) of mouse G-CSF receptor. The cDNA was inserted downstream of the HEF1α promoter of the mammalian expression vector pCV to construct chimeric receptor-expression vector pCV-cPDGFR. pCV-cPDGFR was linearized with Pvu I (Takara Shuzo), extracted with phenol and chloroform, and purified by ethanol precipitation.
The linearized expression gene vector was introduced into mouse Ba/F3 cells using an electroporation apparatus (Gene Pulser: Bio Rad). […]
The cells were washed twice with Media A, and were suspended in Media A to give a cell density of 5×10^4 cells/mL. […] After the culture, 10 μL/well WST-8 reagent (Cell Count Reagent SF; Nacalai Tesque) was added, and pre-reaction absorbance at a measurement wavelength of 450 nm and a control wavelength of 655 nm was measured using microplate reader (Model 3550, Bio Rad). The plate was incubated for two hours in a CO2 incubator (CO2 concentration, 5%), and post-reaction absorbance was measured as above.
For orientation: Tetrazolium assays rely on reduction of a dye to a coloured formazan, in cell work by metabolically active cells.

Assay [3] addresses T3, chimeric PDGF receptor (human PDGF receptor β chain / mouse G-CSF receptor) in Ba/F3 cell line PDG#10 (Homo sapiens, UniProt P09619).
T3 construct: from the 1st to the 531st amino acid residues; expressed in transfected cells; host or cells: mouse Ba/F3 cells, clones PDG#35 (section 1-7) and PDG#10 (section 1-15)
Nature of the assay: Growth response of chimeric PDGF receptor-expressing Ba/F3 cell line PDG (PDG#10) (WST-8). Conditions: Ba/F3 cell line PDG (PDG#10, FIG. 17), 72 hours culture, WST-8 absorbance.
From the text: as §1, with “R G K.” for “RGK.”, “receptor” for “receptor,”, “cloned” for “inserted”, “EF1α” for “HEF1α”
The linearized expression vector was introduced into mouse Ba/F3 cells using an electroporation apparatus (Gene Pulser: Bio Rad). […]
The cells were washed twice with Media A, and were suspended in Media A to give a cell density of 5×10^4 cells/mL. […] After the culture, 10 μL/well WST-8 reagent (Cell Count Reagent SF; Nacalai Tesque) was added, and pre-reaction absorbance at a measurement wavelength of 450 nm and a control wavelength of 655 nm was measured using microplate reader (Model 3550, Bio Rad). The plate was incubated for four hours in a CO2 incubator (CO2 concentration, 5%), and post-reaction absorbance was measured as above.

As for “human IGF-I: human insulin-like growth factor I (Genzyme)”, the “concentration at which an evident growth reaction was observed” value in assay [1] is no less than 10 ng/mL.
On to “human PDGF-BB: human platelet-derived growth factor BB (Genzyme)”, for which the “concentration at which an evident growth reaction was observed” value in assay [2] is no less than 30 ng/mL; in assay [3] it was no less than 0.5 ng/mL.
